The target in the test is Melanocortin receptor 3 (Mus musculus, UniProt P33033). The experiment in a line: Displacement of MTII from mouse MC3R expressed in HEK293 cells. In kind it is cell-based.

Protein sequences, listed by entry. Tags and fused reporters are not part of them. Lines headed by an entry give the natural chain unless they say otherwise; changes in a name come on top.
UniProt P33033: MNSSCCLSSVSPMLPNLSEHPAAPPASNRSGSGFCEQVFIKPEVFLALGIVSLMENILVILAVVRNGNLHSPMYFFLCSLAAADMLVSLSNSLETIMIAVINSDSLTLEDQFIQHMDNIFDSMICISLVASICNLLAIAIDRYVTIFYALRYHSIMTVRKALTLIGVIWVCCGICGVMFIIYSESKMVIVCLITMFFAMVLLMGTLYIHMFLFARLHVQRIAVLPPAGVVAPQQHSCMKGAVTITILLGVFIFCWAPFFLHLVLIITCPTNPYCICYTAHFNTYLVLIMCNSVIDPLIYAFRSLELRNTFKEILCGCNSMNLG

Our source for the Ki values is ChEMBL document CHEMBL3576802, “Discovery of a β-Hairpin Octapeptide, c[Pro-Arg-Phe-Phe-Dap-Ala-Phe-DPro], Mimetic of Agouti-Related Protein(87-132) [AGRP(87-132)] with Equipotent Mouse Melanocortin-4 Receptor (mMC4R) Antagonist Pharmacology” (J Med Chem, 2015).

Each structure is given as a SMILES string.

Broadly, the Ki is a measure of affinity in units of concentration, obtained from inhibition or displacement. The low end stands for a stronger hold on the target, the high end for a looser hold on the target. The compound `C[C@@H]1NC(=O)[C@H](CC(N)=O)NC(=O)[C@H](Cc2ccccc2)NC(=O)C(Cc2cccc3ccccc23)NC(=O)[C@H](CCCNC(=N)N)NC(=O)[C@@H]2CCCN2C(=O)[C@H]2CCCN2C(=O)[C@H](Cc2ccccc2)NC1=O` (stereo partly specified) returned a Ki of 790 nM.
